In article PMC8155056, “Cooperative inhibition of SNARE-mediated vesicle fusion by α-synuclein monomers and oligomers” (Scientific Reports, 2021):

How the values were obtained:
[1] = target: synaptobrevin-2 (amino acids 1–116; one cysteine was replaced with alanine), reconstituted in v-vesicles (UniProt P63045)
[2] = target: synaptobrevin-2 (amino acids 1–116; one cysteine was replaced with alanine), reconstituted in v-vesicles (UniProt P63045); remark: listed apart in the source

Row | in vitro lipid mixing of t-vesicles and v-vesicles without PS (0% PS) with 10 nM α-Syn oligomers and wild-type α-Syn monomer (200 nM to 2 μM): recovery of lipid mixing [1] [%] | in vitro lipid mixing (FRET, DiI/DiD) of t-vesicles and v-vesicles with 10 nM α-Syn oligomers, 37 °C: reduction of lipid mixing [2] [%] | Substance
1 | 100 | – | α-Syn monomer (wild type) (from UniProt P37840 1-140) (natural protein)
2 | – | 50 | dopamine-induced α-Syn oligomers (from UniProt P37840 1-140) (complex)
